Reference: article PMC11096368, “Transcriptomic signature, bioactivity and safety of a non-hepatotoxic analgesic generating AM404 in the midbrain PAG region” (Scientific Reports, 2024)

Test system: FAAH, CORO2A, and RPL7L1 expression
Test: Single-cell RNA sequencing of midbrain PAG in the CFA model
Format: in vivo
Details: 100 mg/kg, 1 h, CFA rats
Experimental: Subsequently, we endeavored to explore the single-cell transcriptome of the eVF rat mid-brain PAG region to further define the mechanisms of action (MOA) of chronic inflammatory pain and, ultimately, SRP-001- and ApAP-mediated pain modulation. Left hind paws of Sprague Dawley rats were injected with 150 µl of 50% complete Freund’s adjuvant (CFA), freshly diluted with sterile saline on the day of administration, to induce conspicuous long-standing inflammatory pain in the rats’ hind paws, along with mechanical hyperalgesia tested using eVF.to induce local inflammation and a chronic pain state. We dosed the rats with ApAP or SRP-001 (100 mg/kg), and after 1 h, they were euthanized to dissect the PAG from flash-frozen brains for 10xGenomics single-nuclei RNA library preparation (Fig. 4a).
For cell nuclei isolation from the midbrain PAG, they were flash-frozen, dissected (by a cryotome), minced into small pieces, homogenized, filtered through 70 μ strainer and centrifuged. ReadiDrop 7-AAD cell viability dye (Bio-Rad) added, and flow sorted the live (7-AAD positive) nuclei in a BioRad Cell Sorter S3e using purity mode. Nuclei were counted using Nexcelom automated Cellometer with acridine orange/propidium iodide (AOPI) stain, and the Nuclei Stock Concentration used so that 10,000 nuclei could be targeted for each sample. […]

**Q.** How did the “Expression of FAAH, CORO2A, and RPL7L1 in PAG (scRNAseq)” value turn out when `CC(=O)Nc1ccc(O)cc1` [ApAP, acetaminophen, reference compound] was run?
**A.** Downregulation
